Data published in patent publication US20230312576A1.

Tested on: HeLa cells
Assay: Cytotoxicity, CellTiter-Glo Luminescent Cell Viability assay, HeLa
Conditions: read-out: EC50 (inhibitor concentration corresponding to half of live cells), 48 hours

Cc1c2cc[nH]c(=O)c2c(C)c2c1[nH]c1ccc(OC(=O)c3ccccc3)cc12
EC50: 1 µM
